System: wild-type HIV-1 strain IIIB
Experiment: not given
Conditions: read-out: Anti-HIV-1 Cell Culture Activity EC50

SMILES | EC50
CCOC(=O)C(C)NP(=O)(COc1ccc(CC(NC(=O)OC2COC3OCCC23)C(O)CN(CC(C)C)S(=O)(=O)c2ccc(OC)cc2)cc1)Oc1ccccc1 (stereo not drawn) [GS-16571] | 15000 ± 5000 pM
CCOC(=O)C(C)OP(=O)(COc1ccc(C[C@H](NC(=O)O[C@H]2CO[C@H]3OCC[C@H]32)[C@H](O)CN(CC(C)C)S(=O)(=O)c2ccc(OC)cc2)cc1)Oc1ccccc1 (stereo partly drawn) [GS-17394] | 20000 ± 7000 pM

Biological target: T1, recombinant HIV-1 protease (Human immunodeficiency virus type 1 group M subtype B, UniProt P04585)
T1 construct: Enzyme: recombinant HIV-1 protease expressed in E. Coli; purchased Bachem California, Inc. H-9040; host or cells: E. coli
Experiment: biochemical
Conditions: Ki

SMILES | Ki
COc1ccc(S(=O)(=O)N(CCN(C)C)CC(O)C(Cc2ccc(O)cc2)NC(=O)OC2COC3OCCC23)cc1 (stereo not drawn) | > 1000 pM
CCOP(=O)(COc1ccc(CC(NC(=O)OC2COC3OCCC23)C(O)CN(CC(C)C)S(=O)(=O)c2ccc([N+](=O)[O-])cc2)cc1)OCC (stereo not drawn) | 10 to 100 pM
CC(C)CN(CC(O)C(Cc1ccc(OCP(=O)(O)OC(C)C(=O)O)cc1)NC(=O)OC1COC2OCCC12)S(=O)(=O)c1ccccc1 (stereo not drawn) | 10 to 100 pM
CC(C)CN(CC(O)C(Cc1ccc(OCP(=O)(OCc2ccccc2)OCc2ccccc2)cc1)NC(=O)OC1COC2OCCC12)S(=O)(=O)c1ccc(C(F)(F)F)cc1 (stereo not drawn) | 10 to 100 pM
CC(C)CN(CC(O)C(Cc1ccc(OCP(=O)(OCc2ccccc2)OCc2ccccc2)cc1)NC(=O)OC1COC2OCCC12)S(=O)(=O)c1ccc(C#N)cc1 (stereo not drawn) | 10 to 100 pM
CC(C)CN(CC(O)C(Cc1ccccc1)NC(=O)OC1COC2OCCC12)S(=O)(=O)c1ccc(OCP(=O)(O)NC(C)C(=O)O)cc1 (stereo not drawn) [OH, Ala-OH] | 10 to 100 pM

Same assay, conditions: read-out: HIV-1 protease inhibition Ki

SMILES | Ki
CCCCOC(=O)C(C)NP(=O)(COc1ccc(CC(NC(=O)OC2COC3OCCC23)C(O)CN(CC(C)C)S(=O)(=O)c2ccc(OC)cc2)cc1)NC(C)C(=O)OCCCC (stereo not drawn) [Example 16d] | 18.8 ± 3.04 pM
